Amino acid sequences for entries named in this document (tags omitted). Chains listed by the source or under a name are the forms on record and can include a tag or linker.
UniProt P13569, with tags, fused parts or gaps DEL508-508: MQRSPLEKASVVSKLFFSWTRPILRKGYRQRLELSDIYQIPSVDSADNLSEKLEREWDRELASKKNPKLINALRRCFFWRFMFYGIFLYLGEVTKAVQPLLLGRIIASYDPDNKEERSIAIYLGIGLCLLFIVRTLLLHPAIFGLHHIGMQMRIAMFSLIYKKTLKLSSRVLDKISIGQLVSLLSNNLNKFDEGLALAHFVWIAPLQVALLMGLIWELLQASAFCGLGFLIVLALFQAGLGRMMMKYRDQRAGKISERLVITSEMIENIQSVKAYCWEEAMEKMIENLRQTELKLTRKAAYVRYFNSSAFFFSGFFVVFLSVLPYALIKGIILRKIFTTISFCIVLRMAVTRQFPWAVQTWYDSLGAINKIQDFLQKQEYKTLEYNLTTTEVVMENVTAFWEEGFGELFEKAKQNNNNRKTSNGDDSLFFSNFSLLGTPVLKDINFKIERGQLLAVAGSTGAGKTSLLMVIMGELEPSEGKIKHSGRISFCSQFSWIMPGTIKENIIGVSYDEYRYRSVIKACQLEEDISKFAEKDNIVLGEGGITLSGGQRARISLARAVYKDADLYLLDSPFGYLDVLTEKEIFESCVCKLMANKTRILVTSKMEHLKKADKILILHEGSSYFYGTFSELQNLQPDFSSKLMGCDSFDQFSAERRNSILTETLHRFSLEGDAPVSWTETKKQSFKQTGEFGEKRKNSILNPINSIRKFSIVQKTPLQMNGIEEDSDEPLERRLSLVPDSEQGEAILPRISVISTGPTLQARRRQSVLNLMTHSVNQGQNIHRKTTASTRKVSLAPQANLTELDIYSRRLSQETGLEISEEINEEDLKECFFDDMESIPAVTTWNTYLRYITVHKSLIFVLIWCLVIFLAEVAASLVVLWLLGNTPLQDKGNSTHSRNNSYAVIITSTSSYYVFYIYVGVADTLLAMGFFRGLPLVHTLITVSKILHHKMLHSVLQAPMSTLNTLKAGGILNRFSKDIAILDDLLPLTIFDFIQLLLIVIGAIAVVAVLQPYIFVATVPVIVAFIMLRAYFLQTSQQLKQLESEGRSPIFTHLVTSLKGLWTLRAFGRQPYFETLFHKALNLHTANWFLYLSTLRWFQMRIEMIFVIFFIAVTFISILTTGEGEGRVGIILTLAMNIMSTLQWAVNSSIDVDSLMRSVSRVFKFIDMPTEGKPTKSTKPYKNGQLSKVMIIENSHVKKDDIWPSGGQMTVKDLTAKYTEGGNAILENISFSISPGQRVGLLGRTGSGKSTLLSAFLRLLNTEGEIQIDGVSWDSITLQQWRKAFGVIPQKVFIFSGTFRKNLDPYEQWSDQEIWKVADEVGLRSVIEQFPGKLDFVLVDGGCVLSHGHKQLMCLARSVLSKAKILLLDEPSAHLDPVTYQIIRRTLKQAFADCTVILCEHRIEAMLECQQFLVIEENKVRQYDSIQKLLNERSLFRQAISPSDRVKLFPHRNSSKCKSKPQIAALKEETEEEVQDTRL

According to patent US9944603B2, “Compounds and methods for the treatment of cystic fibrosis” (Flatley Discovery Lab, LLC, priority 2013, dated 2018):

These compounds were tested against human F508del CFTR (Homo sapiens, UniProt P13569, DEL508-508) (assay: CFTR-YFP Assay, CFTR Corrector Protocol (YFP flux assay)).
Format: cell-based
Compound `CCc1ccc(S(=O)(=O)N2CCC(N(C(=O)c3ccccc3Cl)c3ccc(OC)cc3)CC2)cc1` has an EC50 of 10 to 20 µM. `CCc1ccc(S(=O)(=O)N2CCC(N(C(=O)c3ccccc3)c3ccccn3)CC2)cc1` showed an EC50 of under 10 µM. Compound `CCc1ccc(S(=O)(=O)N2CCC(N(C(=O)c3ccccc3Cl)c3ccc(F)cc3)CC2)cc1` has an EC50 of 10 to 20 µM. For `O=C(c1ccccc1)N(c1ccccn1)C1CCN(S(=O)(=O)c2ccc3c(c2)OCO3)CC1`, the EC50 was under 10 µM.
